From BindingDB's records for doi:10.1111/j.1471-4159.1985.tb08803.x (Lundbeck Ais, 1985)
Where a name gives a salt, the structure may show the parent alone.

Chains of the proteins cited; added tags and fusions are not shown.
UniProt P23977, whole entry: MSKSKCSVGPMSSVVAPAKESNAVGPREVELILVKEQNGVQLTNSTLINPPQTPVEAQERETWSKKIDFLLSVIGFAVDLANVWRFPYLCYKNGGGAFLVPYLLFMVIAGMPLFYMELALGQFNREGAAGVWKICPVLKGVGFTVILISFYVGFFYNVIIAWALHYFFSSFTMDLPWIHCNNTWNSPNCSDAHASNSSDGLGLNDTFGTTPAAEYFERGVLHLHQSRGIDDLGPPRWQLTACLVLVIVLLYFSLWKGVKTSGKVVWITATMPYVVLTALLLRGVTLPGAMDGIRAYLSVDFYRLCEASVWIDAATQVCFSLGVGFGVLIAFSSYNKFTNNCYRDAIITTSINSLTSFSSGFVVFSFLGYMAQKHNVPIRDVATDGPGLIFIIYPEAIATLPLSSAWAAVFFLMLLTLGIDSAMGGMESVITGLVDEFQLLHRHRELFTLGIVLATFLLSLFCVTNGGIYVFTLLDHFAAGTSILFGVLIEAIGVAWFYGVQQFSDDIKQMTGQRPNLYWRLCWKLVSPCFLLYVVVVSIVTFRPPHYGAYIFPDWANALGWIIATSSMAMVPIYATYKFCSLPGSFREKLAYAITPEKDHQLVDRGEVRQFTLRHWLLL
UniProt P31652, whole entry: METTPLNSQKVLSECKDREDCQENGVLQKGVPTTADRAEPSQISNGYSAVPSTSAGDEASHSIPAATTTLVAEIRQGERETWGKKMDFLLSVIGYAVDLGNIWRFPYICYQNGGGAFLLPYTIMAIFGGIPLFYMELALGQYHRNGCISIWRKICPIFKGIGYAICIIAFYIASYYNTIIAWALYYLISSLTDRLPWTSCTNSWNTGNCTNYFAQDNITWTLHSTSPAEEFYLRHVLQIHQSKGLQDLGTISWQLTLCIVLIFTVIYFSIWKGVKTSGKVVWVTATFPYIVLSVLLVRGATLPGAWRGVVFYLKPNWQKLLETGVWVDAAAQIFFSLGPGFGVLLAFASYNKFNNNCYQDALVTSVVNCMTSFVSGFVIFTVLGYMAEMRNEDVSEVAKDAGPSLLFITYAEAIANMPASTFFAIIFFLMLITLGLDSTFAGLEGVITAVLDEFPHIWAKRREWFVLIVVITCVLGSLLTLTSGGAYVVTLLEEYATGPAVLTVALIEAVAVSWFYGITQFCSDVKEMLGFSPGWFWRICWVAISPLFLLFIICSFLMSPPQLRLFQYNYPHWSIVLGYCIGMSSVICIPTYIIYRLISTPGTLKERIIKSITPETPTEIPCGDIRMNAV

Legend:
[1] = target: Sodium-dependent dopamine transporter (Rattus norvegicus, UniProt P23977)
[2] = target: Sodium-dependent serotonin transporter (Rattus norvegicus, UniProt P31652)

Row | SMILES | Ki [1] [nM] | Ki [2] [nM]
1 | CNCCC(Oc1ccccc1OC)c1ccccc1 (stereo not drawn) [3-(2-methoxyphenoxy)-N-methyl-3-phenylpropan-1-amine] | 560 | 610
2 | CN(C)CCCC1(c2ccc(F)cc2)OCc2cc(C#N)ccc21 (stereo not drawn) [CITALOPRAM HYDROBROMIDE] | > 10000 | 
